What was measured:
human dopamine D1R = target: T1, human dopamine D1R (Homo sapiens, UniProt P21728); assay: radioligand binding assay with [3H]SCH23390 at human D1R membranes; conditions: in the presence of 4 μM DA
T1 construct: purchased Perkin Elmer
Method: Binding assays were carried out by using plasma membranes (12 μg/well) expressing human dopamine D1R (Perkin Elmer). […] After this time, the well content was filtered through a Millipore manifold and membranes were washed four times with assay buffer. The plate was dried and radioactivity was measured in a Microbeta Trilux liquid scintillation reader (Perkin Elmer). Non-specific binding was determined in the presence of 1 μM (+)-butaclamol. Data were normalized to the percentage of specific binding and fitted to a 4-parameter logistic equation using with Prism v2.1 software (GraphPad Inc). For the calculation of the affinity ratio of DA in the presence of the allosteric modulators, data were fitted according to the equations reported by Lazareno and Birdsall.[44]

By UniProt entry, the sequences of proteins in these tests, tags left out. Where a name states a change or a piece, a line headed by the entry shows the natural chain unless it says otherwise.
UniProt P21728, whole entry: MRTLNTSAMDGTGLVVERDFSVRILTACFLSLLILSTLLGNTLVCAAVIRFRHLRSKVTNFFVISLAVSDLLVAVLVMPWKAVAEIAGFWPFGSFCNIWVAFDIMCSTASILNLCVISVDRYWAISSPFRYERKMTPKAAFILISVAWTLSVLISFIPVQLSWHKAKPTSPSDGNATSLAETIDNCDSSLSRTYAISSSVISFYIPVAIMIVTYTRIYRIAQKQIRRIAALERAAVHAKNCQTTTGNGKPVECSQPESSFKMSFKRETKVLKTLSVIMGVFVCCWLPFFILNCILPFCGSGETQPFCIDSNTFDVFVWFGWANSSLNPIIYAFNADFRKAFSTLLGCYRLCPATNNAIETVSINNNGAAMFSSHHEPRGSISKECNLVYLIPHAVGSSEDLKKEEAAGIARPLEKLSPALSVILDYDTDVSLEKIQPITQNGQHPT

human D1R = target: T2, human D1R (Homo sapiens, UniProt P21728); assay: potentiator-mode cAMP assay (HTRF) in SK-N-MC neuroblastoma cells endogenously expressing human D1R; format: cell-based; conditions: concentration–response curve of the compound over DA EC70
T2 construct: endogenously expressed human D1R in the SK-N-MC cell line (ATCC); host or cells: SK-N-MC human neuroblastoma cells
Method: An in-house chemical library of 250 compounds was screened using an in vitro assay measuring accumulation of cAMP in a human neuroblastoma SK-N-MC cell line stably expressing physiological levels of the D1R but not the D5R.[41] To assess allosteric modulation of the D1R, cells were treated with a fixed concentration of the test compounds (10 μM) for 15 min and then co-incubated with increasing concentrations of the endogenous agonist DA. The cAMP concentration was quantified by homogeneous time-resolved fluorescence energy transfer (HTRF) and the effect of each compound on the DA concentration–response curve was measured. […]
Potential PAM activities of synthesized compounds 1–10 were tested in the potentiator-mode cAMP production assay, and the results of D1R activation are summarized in Table 1. […] The PAM efficacy was measured as the percentage of increase over DA EC70 and the potency as the EC50 observed in the concentration–response curve. […]
Functional studies at human D1 and D2 receptors were carried out in endogenously expressed human D1R in the SK-N-MC cell line (ATCC), and recombinant human D2R stably transfected in an in-house CHO cell line. […] Next, treated cells were lysed (for the D2R assay, cells were previously treated with 10 μM forskolin for 5 min at 37 °C) and the cAMP concentration was measured by HTRF, using a kit from Cisbio. […]

O=Cc1ccc(-c2ccccc2OCF)cc1 [Compound 3, 2′-(Fluoromethoxy)[1,1′-biphenyl]-4-carbaldehyde]
affinity ratio of [3H]SCH-23390 (human dopamine D1R): concentration-dependent effect of compound 3 by increasing the affinity ratio values
Emax (human D1R; SK-N-MC, read-out: % maximum increase (efficacy over DA EC70)): 91%
% maximum increase (efficacy over DA EC70) (human D1R): 91 ± 6%

Source: publication PMC9511493, “2-(Fluoromethoxy)-4′-(S-methanesulfonimidoyl)-1,1′-biphenyl (UCM-1306), an Orally Bioavailable Positive Allosteric Modulator of the Human Dopamine D1 Receptor for Parkinson’s Disease” (Journal of Medicinal Chemistry, 2022)
